By UniProt entry, the sequences of proteins in these tests, tags left out. Where a name states a change or a piece, a line headed by the entry shows the natural chain unless it says otherwise.
UniProt P41146: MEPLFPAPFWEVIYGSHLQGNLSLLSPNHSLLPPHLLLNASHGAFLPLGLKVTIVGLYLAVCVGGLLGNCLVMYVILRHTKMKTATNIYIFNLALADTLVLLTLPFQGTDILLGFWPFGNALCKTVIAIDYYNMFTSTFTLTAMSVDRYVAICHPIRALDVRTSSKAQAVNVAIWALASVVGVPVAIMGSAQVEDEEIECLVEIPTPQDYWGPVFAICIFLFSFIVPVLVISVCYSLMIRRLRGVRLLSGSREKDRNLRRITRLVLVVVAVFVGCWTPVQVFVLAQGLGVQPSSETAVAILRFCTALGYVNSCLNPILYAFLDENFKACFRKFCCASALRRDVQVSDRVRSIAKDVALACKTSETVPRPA
UniProt P41145: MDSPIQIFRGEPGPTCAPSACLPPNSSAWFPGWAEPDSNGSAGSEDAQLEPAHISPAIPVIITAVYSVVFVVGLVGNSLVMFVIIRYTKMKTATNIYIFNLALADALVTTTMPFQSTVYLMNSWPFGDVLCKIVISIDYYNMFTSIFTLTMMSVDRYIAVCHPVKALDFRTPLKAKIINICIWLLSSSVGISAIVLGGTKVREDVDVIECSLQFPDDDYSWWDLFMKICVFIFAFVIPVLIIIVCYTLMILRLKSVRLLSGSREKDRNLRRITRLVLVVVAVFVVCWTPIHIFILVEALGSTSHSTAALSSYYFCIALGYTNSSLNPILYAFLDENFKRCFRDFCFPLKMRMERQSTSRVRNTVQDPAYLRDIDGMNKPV
UniProt P35372: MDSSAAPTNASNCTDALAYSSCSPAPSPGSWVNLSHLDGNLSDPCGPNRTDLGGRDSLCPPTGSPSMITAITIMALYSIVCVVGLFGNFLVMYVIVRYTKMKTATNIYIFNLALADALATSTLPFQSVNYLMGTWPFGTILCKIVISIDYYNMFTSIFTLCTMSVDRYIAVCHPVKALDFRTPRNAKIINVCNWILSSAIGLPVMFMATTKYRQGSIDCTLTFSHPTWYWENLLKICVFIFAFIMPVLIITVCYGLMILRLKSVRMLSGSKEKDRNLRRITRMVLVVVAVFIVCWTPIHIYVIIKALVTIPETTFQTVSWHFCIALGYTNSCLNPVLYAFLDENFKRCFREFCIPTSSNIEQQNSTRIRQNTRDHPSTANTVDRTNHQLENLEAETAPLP
UniProt P41143: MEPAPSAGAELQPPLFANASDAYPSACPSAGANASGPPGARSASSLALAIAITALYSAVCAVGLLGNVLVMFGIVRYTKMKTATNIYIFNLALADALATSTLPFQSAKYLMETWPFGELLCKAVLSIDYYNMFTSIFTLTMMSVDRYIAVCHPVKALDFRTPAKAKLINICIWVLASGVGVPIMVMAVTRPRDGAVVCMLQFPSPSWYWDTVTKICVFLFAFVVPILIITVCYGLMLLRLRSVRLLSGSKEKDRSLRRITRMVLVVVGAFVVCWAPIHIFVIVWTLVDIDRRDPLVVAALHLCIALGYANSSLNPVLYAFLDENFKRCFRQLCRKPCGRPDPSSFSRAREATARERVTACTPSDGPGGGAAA

According to US6686370B2, “Triazospiro compounds having nociceptin receptor affinity” (Euro-Celtique S.A., priority 1999, dated 2004):

Experiments:
[1] = target: human opioid receptor-like receptor (ORL-1) (Homo sapiens, UniProt P41146); experiment: Functional [35S]GTPγS binding assay, nociceptin affinity at the ORL1 receptor; conditions: read-out: Nociceptin Affinity calc Ki; membranes from recombinant HEK-293 cells expressing human ORL-1
kappa opioid receptor = kappa opioid receptor (Homo sapiens, UniProt P41145); experiment: [35S]GTPγS binding assay, affinity at the k receptor; format: biochemical; conditions: read-out: calc Ki k; kappa opioid receptor membranes
Mu opioid receptor = Mu opioid receptor (Homo sapiens, UniProt P35372); experiment: [35S]GTPγS binding assay, affinity at the μ receptor; format: biochemical; conditions: read-out: calc Ki μ; mu opioid receptor membranes
[2] = target: delta opioid receptor (δ2) (Homo sapiens, UniProt P41143); experiment: [35S]GTPγS binding assay, affinity at the δ receptor; format: biochemical; conditions: read-out: calc Ki δ2; delta opioid receptor membranes

| Substance | Ki [1] [nM] | Ki (kappa opioid receptor) [nM] | Ki (Mu opioid receptor) [nM] | Ki [2] [nM] |
| --- | --- | --- | --- | --- |
| 8-phenyl-benzyl-1-phenyl-1,3,8-triazospiro[4.5]decan-4-one | 1140 | 690 | 49 | 7520 |
| 8[3-oxo-5-phenyl-1,2 cyclohexene]-1-phenyl-1,3,8-triazospiro[4.5]decan-4-one | 861 | > 10000 | 672 | > 10000 |
| 8-[3,3-Bis(phenyl)-4-oxo-butyl]-1-phenyl-1-phenyl-1,3,8-triazospiro[4.5]decan-4-one | 69.8 | 23 | 0.044 | 650 |
| 8-phenyl-ethyl-1-phenyl-1,3,8-triazospiro[4.5]decan-4-one | 288 | 1300 | 98 | > 10000 |
| 8-benzyloxybenzyl-1-phenyl-1,3,8-triazospiro[4.5]decan-4-one | 323 | 1450 | 296 | 7620 |
| 8-benzodioxane-1-phenyl-1,3,8-triazospiro[4.5]decan-4-one | 57 | 2400 | 2.9 | – |
| 8-benzylpiperadine-1-phenyl-1,3,8-triazospiro[4.5]decan-4-one | 1960 | > 10000 | 315 | > 10000 |
| 8-quinoline-methyl-1-phenyl-1,3,8-triazospiro[4.5]decan-4-one | 465 | 3210 | 91 | > 10000 |
| 8-dacalin-1-phenyl-1,3,8-triazospiro[4.5]decan-4-one | 3.6 | 190 | 9.3 | 6910 |
| 8-fluorophenyloxypropyl-1-phenyl-1,3,8-triazospiro[4.5]decan-4-one | 1570 | – | – | – |
